Sequences of proteins named here, by UniProt entry; tags and fusion partners are left off.
UniProt P61073, whole entry: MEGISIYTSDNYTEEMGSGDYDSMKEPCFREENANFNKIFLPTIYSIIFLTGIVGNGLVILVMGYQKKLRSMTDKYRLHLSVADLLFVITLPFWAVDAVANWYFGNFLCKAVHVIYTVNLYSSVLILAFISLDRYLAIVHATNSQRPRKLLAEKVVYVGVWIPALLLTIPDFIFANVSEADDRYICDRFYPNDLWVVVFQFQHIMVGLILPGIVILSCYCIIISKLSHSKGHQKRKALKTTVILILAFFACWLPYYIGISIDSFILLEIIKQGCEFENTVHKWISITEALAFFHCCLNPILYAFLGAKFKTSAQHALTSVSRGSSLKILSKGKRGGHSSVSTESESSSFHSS

According to US9314468B2, “Chemokine receptor modulators” (Altiris Therapeutics, Inc., priority 2008, dated 2016):

Biological target: CXCR4 (Homo sapiens (Human), UniProt P61073)
Experiment: Cellular impedance change induced by SDF-1a (cellular dielectric spectroscopy)
Format: cell-based
Settings: read-out: Antagonist IC50; HeLa cells, endogenous CXCR4, EC50 concentration of SDF-1a, 30 minutes

How did the pIC50 turn out when NCCCCN(Cc1nccc2c3ccccc3n(CC(=O)O)c12)[C@H]1CCCc2cccnc21 was run?
The pIC50 was 8.09.

pIC50: −log10 of the molar value.
